# Test results from article PMC12102759 (Protein Science : A Publication of the Protein Society, 2025).
# System: AP2M1 MU
# Type: binding, human
row,Substance,"PSSM value of the substitution, averaged over the two overlapping peptides"
1,VSDIDYVPLKSATA(averaged) I4Q (VSDQDYVPLKSATA),0
2,VSDIDYVPLKSATA(averaged) I4R (VSDRDYVPLKSATA),0
3,VSDIDYVPLKSATA(averaged) I4S (VSDSDYVPLKSATA),0.0001181
4,VSDIDYVPLKSATA(averaged) I4T (VSDTDYVPLKSATA),0
5,VSDIDYVPLKSATA(averaged) I4V (VSDVDYVPLKSATA),0.0003603
6,VSDIDYVPLKSATA(averaged) I4W (VSDWDYVPLKSATA),0.000276
7,VSDIDYVPLKSATA(averaged) I4Y (VSDYDYVPLKSATA),0.9948
8,VSDIDYVPLKSATA(averaged) K10A (VSDIDYVPLASATA),0.0187
9,VSDIDYVPLKSATA(averaged) K10D (VSDIDYVPLDSATA),0.0007026
10,VSDIDYVPLKSATA(averaged) K10E (VSDIDYVPLESATA),0.2799
11,VSDIDYVPLKSATA(averaged) K10F (VSDIDYVPLFSATA),0.0006958
12,VSDIDYVPLKSATA(averaged) K10G (VSDIDYVPLGSATA),0.001749
13,VSDIDYVPLKSATA(averaged) K10H (VSDIDYVPLHSATA),0.04501
14,VSDIDYVPLKSATA(averaged) K10I (VSDIDYVPLISATA),0.000105
15,VSDIDYVPLKSATA(averaged) K10K,0.001562
16,VSDIDYVPLKSATA(averaged) K10L (VSDIDYVPLLSATA),0.001652
17,VSDIDYVPLKSATA(averaged) K10M (VSDIDYVPLMSATA),0.0713
18,VSDIDYVPLKSATA(averaged) K10N (VSDIDYVPLNSATA),0.1335
19,VSDIDYVPLKSATA(averaged) K10P (VSDIDYVPLPSATA),0.0009616
20,VSDIDYVPLKSATA(averaged) K10Q (VSDIDYVPLQSATA),5.325e-5
21,VSDIDYVPLKSATA(averaged) K10R (VSDIDYVPLRSATA),0.0108

row,Substance,"PSSM value of the substitution, averaged over the two overlapping peptides"
1,VSDIDYVPLKSATA(averaged) K10S (VSDIDYVPLSSATA),0.4022
2,VSDIDYVPLKSATA(averaged) K10T (VSDIDYVPLTSATA),0.01603
3,VSDIDYVPLKSATA(averaged) K10V (VSDIDYVPLVSATA),0.0003789
4,VSDIDYVPLKSATA(averaged) K10W (VSDIDYVPLWSATA),0.0001065
5,VSDIDYVPLKSATA(averaged) K10Y (VSDIDYVPLYSATA),0.01461
6,VSDIDYVPLKSATA(averaged) L9A (VSDIDYVPAKSATA),0
7,VSDIDYVPLKSATA(averaged) L9D (VSDIDYVPDKSATA),0
8,VSDIDYVPLKSATA(averaged) L9E (VSDIDYVPEKSATA),0
9,VSDIDYVPLKSATA(averaged) L9F (VSDIDYVPFKSATA),0.01344
10,VSDIDYVPLKSATA(averaged) L9G (VSDIDYVPGKSATA),0
11,VSDIDYVPLKSATA(averaged) L9H (VSDIDYVPHKSATA),0
12,VSDIDYVPLKSATA(averaged) L9I (VSDIDYVPIKSATA),0.2123
13,VSDIDYVPLKSATA(averaged) L9K (VSDIDYVPKKSATA),0
14,VSDIDYVPLKSATA(averaged) L9L,0.5696
15,VSDIDYVPLKSATA(averaged) L9M (VSDIDYVPMKSATA),0
16,VSDIDYVPLKSATA(averaged) L9N (VSDIDYVPNKSATA),0
17,VSDIDYVPLKSATA(averaged) L9P (VSDIDYVPPKSATA),0
18,VSDIDYVPLKSATA(averaged) L9Q (VSDIDYVPQKSATA),0
19,VSDIDYVPLKSATA(averaged) L9R (VSDIDYVPRKSATA),0
20,VSDIDYVPLKSATA(averaged) L9S (VSDIDYVPSKSATA),0
21,VSDIDYVPLKSATA(averaged) L9T (VSDIDYVPTKSATA),0

row,Substance,"PSSM value of the substitution, averaged over the two overlapping peptides"
1,VSDIDYVPLKSATA(averaged) L9V (VSDIDYVPVKSATA),0.03261
2,VSDIDYVPLKSATA(averaged) L9W (VSDIDYVPWKSATA),0.172
3,VSDIDYVPLKSATA(averaged) L9Y (VSDIDYVPYKSATA),0
4,VSDIDYVPLKSATA(averaged) P8A (VSDIDYVALKSATA),0
5,VSDIDYVPLKSATA(averaged) P8D (VSDIDYVDLKSATA),0.0009116
6,VSDIDYVPLKSATA(averaged) P8E (VSDIDYVELKSATA),0.4861
7,VSDIDYVPLKSATA(averaged) P8F (VSDIDYVFLKSATA),0
8,VSDIDYVPLKSATA(averaged) P8G (VSDIDYVGLKSATA),0
9,VSDIDYVPLKSATA(averaged) P8H (VSDIDYVHLKSATA),0
10,VSDIDYVPLKSATA(averaged) P8I (VSDIDYVILKSATA),0.02132
11,VSDIDYVPLKSATA(averaged) P8K (VSDIDYVKLKSATA),0.0009116
12,VSDIDYVPLKSATA(averaged) P8L (VSDIDYVLLKSATA),0.135
13,VSDIDYVPLKSATA(averaged) P8M (VSDIDYVMLKSATA),0.008183
14,VSDIDYVPLKSATA(averaged) P8N (VSDIDYVNLKSATA),0
15,VSDIDYVPLKSATA(averaged) P8P,0.2644
16,VSDIDYVPLKSATA(averaged) P8Q (VSDIDYVQLKSATA),0
17,VSDIDYVPLKSATA(averaged) P8R (VSDIDYVRLKSATA),0
18,VSDIDYVPLKSATA(averaged) P8S (VSDIDYVSLKSATA),0.01035
19,VSDIDYVPLKSATA(averaged) P8T (VSDIDYVTLKSATA),0
20,VSDIDYVPLKSATA(averaged) P8V (VSDIDYVVLKSATA),0.009542
21,VSDIDYVPLKSATA(averaged) P8W (VSDIDYVWLKSATA),0.06329

row,Substance,"PSSM value of the substitution, averaged over the two overlapping peptides"
1,VSDIDYVPLKSATA(averaged) P8Y (VSDIDYVYLKSATA),0
2,VSDIDYVPLKSATA(averaged) S2A (VADIDYVPLKSATA),0.001505
3,VSDIDYVPLKSATA(averaged) S2D (VDDIDYVPLKSATA),0
4,VSDIDYVPLKSATA(averaged) S2E (VEDIDYVPLKSATA),0
5,VSDIDYVPLKSATA(averaged) S2F (VFDIDYVPLKSATA),0.03202
6,VSDIDYVPLKSATA(averaged) S2G (VGDIDYVPLKSATA),0.1888
7,VSDIDYVPLKSATA(averaged) S2H (VHDIDYVPLKSATA),0.0001068
8,VSDIDYVPLKSATA(averaged) S2I (VIDIDYVPLKSATA),0.0005487
9,VSDIDYVPLKSATA(averaged) S2K (VKDIDYVPLKSATA),0.002995
10,VSDIDYVPLKSATA(averaged) S2L (VLDIDYVPLKSATA),0.00224
11,VSDIDYVPLKSATA(averaged) S2M (VMDIDYVPLKSATA),0.003516
12,VSDIDYVPLKSATA(averaged) S2N (VNDIDYVPLKSATA),0.0353
13,VSDIDYVPLKSATA(averaged) S2P (VPDIDYVPLKSATA),0.05269
14,VSDIDYVPLKSATA(averaged) S2Q (VQDIDYVPLKSATA),0.003282
15,VSDIDYVPLKSATA(averaged) S2R (VRDIDYVPLKSATA),0.4027
16,VSDIDYVPLKSATA(averaged) S2S,0.008191
17,VSDIDYVPLKSATA(averaged) S2T (VTDIDYVPLKSATA),0.002842
18,VSDIDYVPLKSATA(averaged) S2V (VVDIDYVPLKSATA),0
19,VSDIDYVPLKSATA(averaged) S2W (VWDIDYVPLKSATA),0.0006456
